Laboratory results reported in patent publication US10995260B2, “Methods for determining an optimal surfactant structure for oil recovery” (University of Wyoming, priority 2017, dated 2021).

Tests used:
[1] = Dynamic interfacial tension of surfactant solution/crude oil (rising/captive bubble tensiometry); format: physicochemical; details: time for IFT to reach half of its value between γo and γm; 0.1% wt surfactant, municipal water/crude oil, ambient conditions
Experimental: Interfacial tension tests were carried out in accordance with the invention. Dynamic IFT and contact angles were measured using rising/captive bubble tensiometry enhanced by image acquisition with a high-resolution Charged Coupled Device (CCD) digital camera and apochromatically-corrected lens. The apparatus includes a Hastelloy measurement cell, a Hastelloy dual-cylinder pulse-free Quizix pump (to provide constant flow rate and pressure), a temperature control module, a data acquisition computer, an oven, and an in-line density meter (Anton Paar DMA HPM) to measure the density of fluids at actual experimental conditions. The system tolerates reservoir conditions with pressures and temperatures up to 10,000 psi and 150° C., respectively (V. Mirchi, S. Saraji, L. Goual, M. Piri, Dynamic interfacial tension and wettability of shale in the presence of surfactants at reservoir conditions, Fuel, vol. 148, pp. 127-138, 2015). […]
In addition, the dynamic IFT of certain surfactants was measured at reservoir conditions. In particular, the impact of elevated temperatures and pressures on the performance of these surfactants was evaluated. IFT values of crude oil and surfactant solutions were measured at 6840 psi and 120° C. […]

[2] = Cloud point temperature (CPT) of surfactant solutions; format: physicochemical
Experimental: Investigation on the effect of structural arrangement of POE surfactants including alkyl chain and ethylene oxide on solubility of surfactants was accomplished by cloud point measurements. Surfactant solutions were injected into a Hastelloy measurement cell using a Quizix pump. After reaching reservoir pressure (6840 psi), surfactant solutions were heated using a heating jacket (Glas-col, LLC) firmly wrapped around the measurement cell. The temperature was gradually raised (≈ 0.4° C./min) from ambient temperature to 120° C. (reservoir temperature). A mounted resistance temperature detector (RTD) inside the measurement cell (with accuracy of ±0.1° C.) was used to check the internal temperature. Surfactant solutions were then monitored visually by a digital camera attached to a microscope. The temperature above which surfactant solutions became turbid was identified as the CPT.
The CPTs of certain selected surfactants were also measured at atmospheric pressure in a water bath.

## Poly(ethylene glycol)(18) tridecyl ether [EO-18]
[1]
  t*: 3.5 min
[2]; solution became cloudy at reservoir temperatures
  aqueous solubility: good aqueous solubility
[2]; surfactant solution, FIG. 4 at 6840 psi
  cloud point temperature (CPT): 109.6 °C
